According to US6890516:

Molecular target: dCREB2-a protein (Drosophila)
Test: cell-based or functional assay

Q: With “mouse PKA catalytic subunit (from UniProt P05132 2-351) (enzyme)” as the substance, how does the activation of the D(-71) CAT reporter (CAT/βgal ratio, F9 cells) read?
A: 5.4 fold
